From ChEMBL document CHEMBL1143494, “Synthesis and SAR of highly selective MMP-13 inhibitors” (Bioorg Med Chem Lett, 2005)

Target: Collagenase 3 (Homo sapiens, UniProt P45452)
Experiment: Inhibitory concentration against MMP-13

Row | IC50 [nM] | Structure (SMILES)
1 | 2.6 | CC(C)[C@@H](NS(=O)(=O)c1ccc(-c2ccc(NC(=O)c3cc4ccccc4o3)cc2)cc1)C(=O)O
2 | 2.4 | CC(C)[C@H](NS(=O)(=O)c1ccc(-c2ccc(NC(=O)c3cc4ccccc4o3)cc2)cc1)C(=O)O
